This is an account of results in patent publication US20150150893A1, “ANDROGRAPHOLIDE ANALOGS AND THEIR USE FOR MEDICATION” (LIAONING LIFENG SCIENTIFIC & TECHNOLOGY DEVELOPMENT COMPANY …, priority 2012, published 2015).

The test system of the assay is S180 sarcoma. On the set-up: species or system Kunming mice. The conditions noted are these: mouse, in vivo, iv.
`C=C1CCC2C(C)(CO)C(O)CCC2(C)C1CC(NC12CN3CN(CN(C3)C1)C2)C1=CCOC1=O` (stereo not drawn) [Example 57, 12-((1s,3s,5s)-1,3,5-triazaadamantan-7-ylamino)-14-deoxyandrographolide]: the anti-tumor efficacy entry is reported as “statistically significant”.

Turning to `CN1CCN(c2ccc(/C=C3C=C(/C=C/C4C5(CCC6[C@]4(C)CC[C@@H](O)[C@@]6(C)CO)CO5)C(=O)O\3)cc2)CC1` (stereo partly drawn) [Example 71, 11,12-dedihydro-14-deoxy-(E)-15-(4-(4-methylpiperazin-1-yl)benzylidene)-8,17-epoxyandrographolide], the anti-tumor efficacy result is reported as “statistically significant”.

With `C=C1C(NC(C)C(=O)NC2=NCC=N2)CC2[C@](C)(CC[C@@H](O)[C@@]2(C)CO)C1/C=C/C1=CC(=C\c2ccc(N(C)C)cc2)/OC1=O` (stereo partly drawn) [Example 188], the anti-tumor efficacy result is reported as “statistically significant”.
